Target: T1, FV-810 (Homo sapiens, UniProt P12259, DEL839-1519)
T1 construct: amino acids 1-28 are a signal peptide that is cleaved and numbering begins at residue 29; made in house
Experiment: Displacement of OG488-BR from preformed OG488-BR/FV-810 complex (fluorescence anisotropy)
Type: binding
Conditions: 30 nM OG488-BR, 20 nM FV-810, 50 μM PCPS

Chains of the proteins cited; added tags and fusions are not shown. A line that says so, or that is headed by a name, gives the form on record, which may keep a tag or linker.
UniProt P12259, with tags, fused parts or gaps DEL839-1519: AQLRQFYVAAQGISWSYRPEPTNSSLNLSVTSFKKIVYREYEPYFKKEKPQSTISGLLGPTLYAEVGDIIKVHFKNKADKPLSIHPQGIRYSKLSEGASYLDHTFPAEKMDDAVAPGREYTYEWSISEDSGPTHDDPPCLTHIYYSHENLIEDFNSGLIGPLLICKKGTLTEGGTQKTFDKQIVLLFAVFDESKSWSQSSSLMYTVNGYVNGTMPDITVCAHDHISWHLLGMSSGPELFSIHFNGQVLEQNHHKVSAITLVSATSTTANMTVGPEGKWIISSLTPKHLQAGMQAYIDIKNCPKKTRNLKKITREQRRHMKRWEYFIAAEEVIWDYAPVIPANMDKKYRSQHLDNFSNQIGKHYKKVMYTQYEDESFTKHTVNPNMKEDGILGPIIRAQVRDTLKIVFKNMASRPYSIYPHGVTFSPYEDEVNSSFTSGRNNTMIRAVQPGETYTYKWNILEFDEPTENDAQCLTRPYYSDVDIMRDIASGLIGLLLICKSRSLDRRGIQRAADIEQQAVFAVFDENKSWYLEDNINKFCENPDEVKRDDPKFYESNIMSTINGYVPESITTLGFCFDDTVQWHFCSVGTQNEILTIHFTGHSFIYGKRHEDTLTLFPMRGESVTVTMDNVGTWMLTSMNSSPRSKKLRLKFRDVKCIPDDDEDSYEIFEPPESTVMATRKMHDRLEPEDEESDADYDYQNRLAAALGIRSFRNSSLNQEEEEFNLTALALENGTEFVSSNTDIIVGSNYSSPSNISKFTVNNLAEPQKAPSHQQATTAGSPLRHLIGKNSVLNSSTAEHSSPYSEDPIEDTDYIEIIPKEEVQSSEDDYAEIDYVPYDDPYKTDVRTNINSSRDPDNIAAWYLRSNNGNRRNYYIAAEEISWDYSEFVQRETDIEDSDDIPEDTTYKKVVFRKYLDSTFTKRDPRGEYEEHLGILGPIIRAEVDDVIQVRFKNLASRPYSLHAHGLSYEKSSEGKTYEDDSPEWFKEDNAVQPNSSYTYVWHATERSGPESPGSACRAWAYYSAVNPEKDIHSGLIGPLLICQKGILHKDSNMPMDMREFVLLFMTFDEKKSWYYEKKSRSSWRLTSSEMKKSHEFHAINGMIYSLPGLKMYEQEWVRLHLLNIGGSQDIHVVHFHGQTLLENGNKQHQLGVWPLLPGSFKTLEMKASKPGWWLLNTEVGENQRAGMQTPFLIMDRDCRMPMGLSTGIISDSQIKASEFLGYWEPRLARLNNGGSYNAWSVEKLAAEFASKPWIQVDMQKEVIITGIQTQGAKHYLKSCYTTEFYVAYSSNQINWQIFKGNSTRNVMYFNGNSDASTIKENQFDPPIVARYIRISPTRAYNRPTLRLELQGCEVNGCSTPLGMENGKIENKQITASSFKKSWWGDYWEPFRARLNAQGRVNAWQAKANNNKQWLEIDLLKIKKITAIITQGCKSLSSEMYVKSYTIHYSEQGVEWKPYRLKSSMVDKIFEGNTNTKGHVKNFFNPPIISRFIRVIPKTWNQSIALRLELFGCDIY

stoichiometry n, FXa: 1.1±0.07 mol of FXa/mol of FV-810 | stoichiometry n, FXa (listed as FXa^S195A): 1.1 mol of FXa/mol of FV-810
Substance: FXaS195A: catalytically inactive Factor Xa S195A [reference compound]

Reference: patent publication US10239933B2, “Compositions and methods for modulating thrombin generation” (The Children's Hospital of Philadelphia, priority 2011, dated 2019)
